# Columns and labels:
# Amino acid sequences for entries named in this document (tags omitted). A change or cut given only in a name is not applied to a line headed by its entry.
# UniProt Q9UNQ0: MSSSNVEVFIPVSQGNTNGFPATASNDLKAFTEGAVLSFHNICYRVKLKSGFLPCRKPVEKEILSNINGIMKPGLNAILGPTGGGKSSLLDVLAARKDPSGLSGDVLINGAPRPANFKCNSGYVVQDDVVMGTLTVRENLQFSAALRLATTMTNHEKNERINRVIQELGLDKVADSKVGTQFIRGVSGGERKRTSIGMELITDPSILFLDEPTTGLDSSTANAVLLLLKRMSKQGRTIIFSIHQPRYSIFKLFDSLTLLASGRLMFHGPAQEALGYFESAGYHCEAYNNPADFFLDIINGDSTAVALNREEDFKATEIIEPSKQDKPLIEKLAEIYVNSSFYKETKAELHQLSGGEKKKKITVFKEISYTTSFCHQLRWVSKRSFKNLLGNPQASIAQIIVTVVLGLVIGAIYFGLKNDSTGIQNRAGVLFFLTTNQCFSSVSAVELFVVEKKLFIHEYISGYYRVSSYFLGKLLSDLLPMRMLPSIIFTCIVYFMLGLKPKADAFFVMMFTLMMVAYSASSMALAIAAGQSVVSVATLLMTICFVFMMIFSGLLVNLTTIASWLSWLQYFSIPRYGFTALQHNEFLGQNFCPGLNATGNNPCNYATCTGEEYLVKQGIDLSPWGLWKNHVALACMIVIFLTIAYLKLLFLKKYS
# [1] = in vivo; cited from earlier work
# [2] = in vivo; cited from earlier work; remark: listed apart in the source
# BCRP = BCRP (Homo sapiens, UniProt Q9UNQ0); test: Transcellular transport across MDCK-BCRP cell monolayers (efflux ratio); settings: dog, pH 7.4
structure (smiles),measurement,setting,value
Cc1cc2c(s1)Nc1ccccc1N=C2N1CCN(C)CC1 [Olanzapine],"Kp,uu,brain Rat",[1],2.450
same,"Kp,uu,brain Human",[2],0.15
same,"efflux ratio at 1 h, 1 μM",BCRP,0.8

# Source: paper PMC8175309, “Translational CNS Steady-State Drug Disposition Model in Rats, Monkeys, and Humans for Quantitative Prediction of Brain-to-Plasma and Cerebrospinal Fluid-to-Plasma Unbound Concentration Ratios” (The AAPS Journal, 2021)
